Results reported in patent EP3442966B1, “NOVEL N-[(PYRIMIDINYLAMINO)PROPANYL]- AND N-[(PYRIDINYLAMINO)PROPANYL]ARYLCARBOXAMIDES” (Boehringer Ingelheim International GmbH, priority 2016, dated 2017).

Chains of the proteins cited; added tags and fusions are not shown.
UniProt O43613, whole entry, species assumed: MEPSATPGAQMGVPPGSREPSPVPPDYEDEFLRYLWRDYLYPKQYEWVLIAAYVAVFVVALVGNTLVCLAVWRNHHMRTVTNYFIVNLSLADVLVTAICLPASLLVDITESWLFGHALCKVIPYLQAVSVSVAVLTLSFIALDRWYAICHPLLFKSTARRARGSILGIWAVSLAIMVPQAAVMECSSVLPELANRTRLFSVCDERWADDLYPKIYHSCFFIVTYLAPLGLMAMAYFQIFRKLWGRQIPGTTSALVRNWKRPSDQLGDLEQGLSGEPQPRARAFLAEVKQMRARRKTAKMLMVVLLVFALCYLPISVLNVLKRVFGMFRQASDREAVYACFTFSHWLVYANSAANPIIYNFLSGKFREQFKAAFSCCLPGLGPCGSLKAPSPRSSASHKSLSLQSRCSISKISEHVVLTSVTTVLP

Target: OX1R (Homo sapiens, UniProt O43613)
Assay: OX1R assay of WO2013/187466 (fluorescence measurement of intracellular Ca2+ changes)
Assay type: cell-based
Conditions: ratio of the IC50 values described in WO2013/187466

CCN(C(=O)c1cc(F)ccc1-c1ncccn1)[C@@H](C)Cn1nnc(-c2ccc(F)cc2)n1 [Example 70 in WO2013/187466]
OX2R IC50 / OX1R IC50: 411
